This note sets out measurements from ChEMBL document CHEMBL1155799 (Bioorg Med Chem, 2008).

Amino acid sequences for entries named in this document (tags omitted). A change or cut given only in a name is not applied to a line headed by its entry.
UniProt P28223, whole entry: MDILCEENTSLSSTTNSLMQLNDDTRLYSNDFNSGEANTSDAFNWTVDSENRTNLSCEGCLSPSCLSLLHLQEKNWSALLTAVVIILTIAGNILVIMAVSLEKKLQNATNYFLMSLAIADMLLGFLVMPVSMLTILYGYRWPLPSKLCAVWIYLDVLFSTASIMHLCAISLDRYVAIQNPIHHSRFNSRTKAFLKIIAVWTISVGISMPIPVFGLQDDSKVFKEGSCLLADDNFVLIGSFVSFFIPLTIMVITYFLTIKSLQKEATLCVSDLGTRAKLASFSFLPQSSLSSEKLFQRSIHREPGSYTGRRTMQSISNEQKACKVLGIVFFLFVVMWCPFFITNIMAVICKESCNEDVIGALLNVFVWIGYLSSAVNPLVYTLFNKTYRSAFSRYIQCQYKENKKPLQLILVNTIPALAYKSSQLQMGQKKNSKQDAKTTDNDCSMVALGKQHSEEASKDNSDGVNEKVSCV
UniProt P08908, whole entry: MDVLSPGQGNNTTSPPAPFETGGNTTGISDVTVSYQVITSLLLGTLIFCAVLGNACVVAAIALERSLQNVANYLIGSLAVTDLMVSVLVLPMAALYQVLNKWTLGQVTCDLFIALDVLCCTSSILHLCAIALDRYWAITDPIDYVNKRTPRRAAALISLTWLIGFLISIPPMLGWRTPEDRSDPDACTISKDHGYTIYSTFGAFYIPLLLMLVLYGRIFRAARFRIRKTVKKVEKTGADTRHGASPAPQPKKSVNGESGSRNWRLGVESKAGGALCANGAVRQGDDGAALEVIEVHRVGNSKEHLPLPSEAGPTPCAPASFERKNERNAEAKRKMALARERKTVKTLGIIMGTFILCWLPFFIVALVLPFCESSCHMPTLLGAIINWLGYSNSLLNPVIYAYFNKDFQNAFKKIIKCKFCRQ
UniProt P28335: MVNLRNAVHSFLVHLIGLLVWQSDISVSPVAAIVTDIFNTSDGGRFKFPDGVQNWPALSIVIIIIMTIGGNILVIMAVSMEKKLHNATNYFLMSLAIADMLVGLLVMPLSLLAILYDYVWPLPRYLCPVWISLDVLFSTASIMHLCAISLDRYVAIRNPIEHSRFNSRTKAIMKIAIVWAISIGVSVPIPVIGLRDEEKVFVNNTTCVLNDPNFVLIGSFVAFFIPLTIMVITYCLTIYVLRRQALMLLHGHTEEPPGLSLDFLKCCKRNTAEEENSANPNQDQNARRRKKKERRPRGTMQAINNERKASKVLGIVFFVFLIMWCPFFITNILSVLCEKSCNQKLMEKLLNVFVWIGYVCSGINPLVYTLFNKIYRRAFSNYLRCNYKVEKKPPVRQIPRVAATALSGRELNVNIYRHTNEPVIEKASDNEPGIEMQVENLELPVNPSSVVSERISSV

Structures are written as SMILES.

In assay [1] the target is 5-hydroxytryptamine receptor 2A (Homo sapiens, UniProt P28223).
For assay [2], the target named is 5-hydroxytryptamine receptor 1A (Homo sapiens, UniProt P08908).
Assay [3] has as its target 5-hydroxytryptamine receptor 2C (Homo sapiens, UniProt P28335).

A word on the Ki: it is the dissociation constant of the complex between target and ligand, obtained from inhibition or displacement. A low value points to tighter binding.

`O=C(CCCN1C2CCC1CN(c1ccc(Cl)cc1)CC2)c1ccc(F)cc1` (stereo not drawn): the inhibition constant Ki came out at 195 nM in assay [1], 2330 nM in assay [2] and 3.51 µM in assay [3].
